Measurements published in ChEMBL document CHEMBL1125742 (J Med Chem, 1991).

The chains behind the UniProt entries cited, without tags or fusion partners. Where a name states a change or a piece, a line headed by the entry shows the natural chain unless it says otherwise.
UniProt P41144: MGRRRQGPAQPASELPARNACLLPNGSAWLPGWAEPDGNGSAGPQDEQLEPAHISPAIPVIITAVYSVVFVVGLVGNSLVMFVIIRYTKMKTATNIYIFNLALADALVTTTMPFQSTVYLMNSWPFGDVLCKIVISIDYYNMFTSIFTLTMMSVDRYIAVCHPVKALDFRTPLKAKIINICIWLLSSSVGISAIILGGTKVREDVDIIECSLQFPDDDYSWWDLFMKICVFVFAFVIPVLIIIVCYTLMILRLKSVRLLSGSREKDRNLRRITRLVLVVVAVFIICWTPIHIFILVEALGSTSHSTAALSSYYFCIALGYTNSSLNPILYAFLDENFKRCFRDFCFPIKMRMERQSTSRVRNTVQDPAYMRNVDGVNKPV
UniProt P97266, whole entry, looked up: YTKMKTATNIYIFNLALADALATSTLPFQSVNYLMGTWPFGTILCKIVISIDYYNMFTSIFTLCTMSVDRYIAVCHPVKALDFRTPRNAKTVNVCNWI

Assays:
[1] = target: Kappa-type opioid receptor (Cavia porcellus, UniProt P41144); type: tissue-based, Brain
Mus musculus = assay: Antinociceptive activity in mouse tail flick test following s.c. administration.; type: functional
Outline: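 Mouse tail flick test, D'Amour and Smith procedure as modified by Ling et al., with compound given subcutaneously. ED50 in mg/kg with 95% confidence limits, derived by Finney probit analysis.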

Mu-type opioid receptor = Mu-type opioid receptor (Cavia porcellus, UniProt P97266); assay: Displacement of [3H]DAGO from mu opioid receptors in guinea pig brain (minus cerebellum).; type: tissue-based

## CN(C(=O)Cc1ccc(Cl)c(Cl)c1)C1CCCCC1N1CCCC1 (stereo not drawn)
[1]
  Ki: 0.97 nM
Mus musculus
  ED50: 1.9 mg/kg
Mu-type opioid receptor
  Ki: 616 nM
